This is an account of results in ChEMBL document CHEMBL1140497, “The molecular pruning of a phosphoramidate peptidomimetic inhibitor of prostate-specific membrane antigen” (Bioorg Med Chem, 2007).

Sequences of proteins named here, by UniProt entry; tags and fusion partners are left off.
UniProt Q04609, whole entry, looked up: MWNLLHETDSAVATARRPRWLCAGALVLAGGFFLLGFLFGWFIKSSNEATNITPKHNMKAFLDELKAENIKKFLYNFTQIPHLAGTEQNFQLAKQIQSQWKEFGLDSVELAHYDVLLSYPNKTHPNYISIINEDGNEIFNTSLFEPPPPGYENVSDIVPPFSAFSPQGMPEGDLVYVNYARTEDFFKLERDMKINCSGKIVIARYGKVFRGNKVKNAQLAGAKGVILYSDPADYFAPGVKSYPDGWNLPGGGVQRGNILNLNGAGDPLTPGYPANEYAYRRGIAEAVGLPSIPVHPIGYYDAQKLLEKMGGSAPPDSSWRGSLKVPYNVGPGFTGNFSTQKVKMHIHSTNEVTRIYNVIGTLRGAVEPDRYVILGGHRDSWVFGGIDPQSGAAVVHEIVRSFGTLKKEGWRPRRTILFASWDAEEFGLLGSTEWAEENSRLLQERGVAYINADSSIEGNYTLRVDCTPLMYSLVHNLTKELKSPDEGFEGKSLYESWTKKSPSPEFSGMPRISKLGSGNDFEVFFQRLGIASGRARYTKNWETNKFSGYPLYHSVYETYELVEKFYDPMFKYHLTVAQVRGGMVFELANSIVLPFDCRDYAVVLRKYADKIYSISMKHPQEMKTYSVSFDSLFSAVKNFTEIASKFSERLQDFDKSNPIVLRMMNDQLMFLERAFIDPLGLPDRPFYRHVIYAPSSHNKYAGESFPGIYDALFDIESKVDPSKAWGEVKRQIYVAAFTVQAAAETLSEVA

For orientation: IC50 means the concentration needed to halve the response being measured. Low values mean greater potency in that assay, high ones weaker potency in that assay.

The test has as its target Glutamate carboxypeptidase 2 (Homo sapiens, UniProt Q04609). Put plainly: Inhibition of PSMA. In a few lines:
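Purified PSMA in 50 mM Tris pH 7.4, diluted to give 15–20% substrate conversion without inhibitor. Substrate PAB-Glu-γ-Glu at 10 μM final. Five serial inhibitor dilutions spanning 10–90% inhibition. 15 min at 37 °C with shaking. Stopped with methanolic TFA, buffered with K2HPO4, centrifuged. Supernatant quantified by HPLC; IC50 calculated.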

Turning to `O=C(O)CCOP(=O)(O)N[C@@H](CCC(=O)O)C(=O)O`, the IC50 was found to be 4.1 µM.
